Biological target: T1, GIP receptor (GIP RBA, RIN), P43219
T1 chain: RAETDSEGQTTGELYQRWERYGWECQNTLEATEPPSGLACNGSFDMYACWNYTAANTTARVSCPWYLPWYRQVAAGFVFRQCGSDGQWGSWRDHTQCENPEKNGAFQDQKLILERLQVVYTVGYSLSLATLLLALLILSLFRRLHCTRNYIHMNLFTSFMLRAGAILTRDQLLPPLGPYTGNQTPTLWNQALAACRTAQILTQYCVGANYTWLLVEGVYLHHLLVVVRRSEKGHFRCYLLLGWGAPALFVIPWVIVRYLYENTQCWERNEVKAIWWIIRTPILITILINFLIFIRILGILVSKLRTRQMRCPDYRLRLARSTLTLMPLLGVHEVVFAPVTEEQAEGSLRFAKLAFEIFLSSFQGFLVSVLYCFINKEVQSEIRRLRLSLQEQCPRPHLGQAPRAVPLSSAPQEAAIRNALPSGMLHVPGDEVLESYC
Test: cell-based or functional assay

B1: 0601GIP4292 (peptide)
peptide: GYAEGTFISDYSIALDKIRQQEFVNWLLAQHPSSGAPPPS
modifications: not checked
Cyclase: 3.46

From patent publication US20110136737A1
